# Apparent affinities of Ab-95 variants for a coronavirus HR2 peptide

Binding partner: SARS-CoV-2 spike HR2 peptide, sequence PDVDLGDISGINAS.

The variants keep the heavy chain, the linker and the frameworks of Ab-95 (scFv order VH, three GGGGS repeats, VL).
VH: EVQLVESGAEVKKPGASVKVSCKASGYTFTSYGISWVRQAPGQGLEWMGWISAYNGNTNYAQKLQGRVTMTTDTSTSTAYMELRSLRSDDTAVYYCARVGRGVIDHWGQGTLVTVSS
VL: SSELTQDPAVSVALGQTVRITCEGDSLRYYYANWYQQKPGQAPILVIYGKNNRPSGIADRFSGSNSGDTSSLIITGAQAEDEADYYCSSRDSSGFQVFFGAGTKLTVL

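The parent was found by panning a naive human phage display library on the peptide. Variants in AAYL52 differ from the parent at up to three CDR positions; double and triple changes were sampled at random. The scFvs were displayed on barcoded MATa yeast, the peptide on MATalpha yeast. After mating in shaken culture at 30 °C for 16 h, diploids were selected and their barcode pairs sequenced. A regression on co-assayed BCL2-family reference pairs converts the normalised counts of each replicate to an apparent Kd. Mating was done three times.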

Each variant is given by its three light chain CDRs, as the data file delimits them; those of the parent are EGDSLRYYYAN, GKNNRPS, SSRDSSGFQVF. Each Kd is an estimate from the mating assay, the geometric mean of the replicates in which the pair was seen; lower is stronger. Where no diploid with the target was found in any replicate, the entry reads "no signal": below detection, most likely a poor binder, though not proof of it.

| CDR-L1 | CDR-L2 | CDR-L3 | apparent Kd | detected | control signals |
|---|---|---|---|---|---|
| EGDSLRYYYAN | GKNNRPS | VVRYSSGFQVF | 1.2 µM | 1/3 | 2/9 |
| HGDSNRYYYAN | GNNNRPS | SSRDSSGFQVF | 760 nM | 2/3 | 2/9 |
| EGDSLPYYYAT | GKNNRPS | SSTDSSGFQVF | 23 µM | 1/3 | 3/9 |
| EGDSLRYYYAV | GKNNRPS | SSRVSSGFKVF | 21 µM | 1/3 | 5/9 |
| EGDSLRYYYAY | GKNNRPS | TSRDASGFQVF | 6.9 µM | 1/3 | 2/9 |
| EGDSLRYYYAN | VKNNRPS | SERDSSGFQVF | 150 µM | 2/3 | 4/9 |
| EGDSLRYYQAN | NKNNRPS | SSRDSSGFQVH | 98 nM | 3/3 | 1/9 |
| EGDSLRYYYAF | GKWNRPS | SSRDSSMFQVF | 9.7 µM | 1/3 | 1/9 |
| EGDFLRYYYAN | GKNNMPS | SSRDSSGFQVK | 33 µM | 1/3 | 4/9 |
| EGDSLRYLYAN | GKNNRPS | SSRDSKGFKVF | 100 nM | 3/3 | 0/9 |
| EGDSLRYYYLN | GKNNHPS | SSRDSSGFQVF | 11 µM | 2/3 | 3/9 |
| EGKSLRYYYAN | GKNNRPS | SSRDSSLFQVF | 1.4 µM | 3/3 | 3/9 |
| EGDSLRYYYAN | GKNNRPS | SSRDSCGFNWF | 2.8 µM | 3/3 | 3/9 |
| EGDSLRYYYAN | GKNNRPS | WSQDSSGFQHF | 110 nM | 3/3 | 3/9 |
| EGDSLRYYYAN | DKNNRPS | SSRDSSGCQVR | 4.4 µM | 3/3 | 2/9 |
| EGDGLRYYCAN | GKNNRDS | SSRDSSGFQVF | 360 nM | 3/3 | 0/9 |
| EGDSLRYTYAN | GKNSRPS | SSRDSSGFQVF | 14 nM | 3/3 | 1/9 |
| EKDSLRYYYAN | GKNNRVS | SSRDSSGFQVK | 17 µM | 2/3 | 5/9 |
| EGDSLRYYHAN | GKNHRPS | SSRLSSGFQVF | 62 µM | 2/3 | 2/9 |
| EGWSLIYYYAN | GKNNRPS | SSCDSSGFQVF | 5.5 µM | 1/3 | 3/9 |
| EGDSLVYYYAN | YKNNRPS | SSRDSHGFQVF | 7.1 µM | 3/3 | 4/9 |
| EGDSLRYYYNN | GKNNRPS | SARDSSGFQVN | 850 nM | 2/3 | 0/9 |
| EGDSLRYYYRN | GKNNRPS | SSRDSCGFQAF | 29 µM | 2/3 | 3/9 |
| EGESLRYYYAN | GKNNRPS | SSRLSSGFLVF | 7.2 µM | 2/3 | 3/9 |
| EGDSLRYYYNN | GKNNQPS | SSRDSSGFQVF | 440 nM | 3/3 | 4/9 |
| EGDSLRYAYAI | GKNNRPS | SSRDSSGFQDF | 12 µM | 1/3 | 3/9 |
| EGDSLRYYYAN | GKNNRPS | SSCKSWGFQVF | 9.0 µM | 2/3 | 4/9 |
| EGDSLRYYYAN | GKNNRPS | DIRDSSGFTVF | no signal | 0/3 | 1/9 |
| EGDSLRYYYFN | HKNERPS | SSRDSSGFQVF | 85 µM | 1/3 | 9/9 |
| EGDSLRPYYAN | GKVNRPS | SSRDSTGFQVF | 2.4 µM | 1/3 | 2/9 |
| EGDSSRYYYAN | GKNNRMS | SSRDSHGFQVF | 29 µM | 3/3 | 2/9 |
| EGDSLRYYRAN | GKNNRPS | SSADSSGFQEF | 30 µM | 2/3 | 3/9 |
| EGDSLRYYYAN | GKNNRLS | PSRDSFGFQVF | 460 nM | 3/3 | 1/9 |
| LGDSLKYYYAN | GKNNRPT | SSRDSSGFQVF | 2.5 µM | 2/3 | 0/9 |
| EGDSNRRYDAN | GKNNRPS | SSRDSSGFQVF | 220 nM | 3/3 | 3/9 |
| ENDSLRYYYAN | GKNNRPS | SSRDGSGFQVF | 4.1 µM | 2/3 | 5/9 |
| EGDMLRYYYAN | GKNNRPS | SSRDFSGWQVF | 14 µM | 2/3 | 2/9 |
| EGDSLRYCYIN | GHNNRPS | SSRDSSGFQVF | 540 µM | 2/3 | 3/9 |
| EGDSLRYYYAN | GKNNRPS | SSMDSSGPQQF | 2.5 µM | 3/3 | 3/9 |
| EGDSLRYYYAN | GKNNRPS | SSVDSSGFNDF | 420 nM | 3/3 | 2/9 |
| EGDSLRYDYAN | GKNNRPS | SSRDSSQFQVF | 360 nM | 3/3 | 1/9 |
| ECDSLRYYYAN | GNNNRPS | SSRDSSGFQHF | 37 µM | 2/3 | 4/9 |
| NGDSLRAYYAN | GKNNRPS | SWRDSSGFQVF | 150 nM | 3/3 | 0/9 |
| EGDSLRYYYAQ | GKNNRPS | SSRYSSGFQVF | 5.3 µM | 3/3 | 1/9 |
| EGDSLRYYYAN | GYNNRPS | SSRDHSGFHVF | 1.7 µM | 3/3 | 5/9 |
| EGDSLDYYYAI | GKNNSPS | SSRDSSGFQVF | 11 µM | 3/3 | 3/9 |
| EGDQLRYYYAN | GKNNRPS | SSRDISHFQVF | no signal | 0/3 | 0/9 |
| EGDSLRYYYAN | GKRNRPH | SSRISSGFQVF | 6.8 µM | 2/3 | 2/9 |
| SSDSLRYYYAG | GKNNRPS | SSRDSSGFQVF | 840 nM | 3/3 | 5/9 |
| WGDWLRYYYAN | GKNTRPS | SSRDSSGFQVF | 2.8 µM | 3/3 | 5/9 |
| ECDSTRYYYAN | GKNNRPS | SSRDSPGFQVF | 15 µM | 2/3 | 3/9 |
| EGDSLRYYYAN | GKNNRPS | SSVGSSMFQVF | 59 nM | 3/3 | 2/9 |
| EGDSKRYWYAN | GQNNRPS | SSRDSSGFQVF | 40 µM | 3/3 | 4/9 |
| EGCSLRYYHAN | GKNNRPN | SSRDSSGFQVF | 4.1 µM | 3/3 | 2/9 |
| EGDSLRYCYAN | QKNNRPS | QSRDSSGFQVF | 4.5 µM | 1/3 | 3/9 |
| EGDSLRHYYAN | GKNNRPR | SSDDSSGFQVF | 860 nM | 2/3 | 2/9 |
| EGDSLRFYYAN | GKLNRPH | SSRDSSGFQVF | 1.8 µM | 1/3 | 4/9 |
| EGMSVRYYYAN | GKNNRPS | SSRDSSGFSVF | no signal | 0/3 | 0/9 |

The first 3 variants above that were never detected:

| CDR-L1 | CDR-L2 | CDR-L3 | apparent Kd | detected | control signals |
|---|---|---|---|---|---|
| EGDSLRYYYAN | GKNNRPS | DIRDSSGFTVF | no signal | 0/3 | 1/9 |
| EGDQLRYYYAN | GKNNRPS | SSRDISHFQVF | no signal | 0/3 | 0/9 |
| EGMSVRYYYAN | GKNNRPS | SSRDSSGFSVF | no signal | 0/3 | 0/9 |

Nonspecific signal, from three strains lacking the peptide, appeared in 28% of pairings of library AAYL52, centred on 8.2 µM (5% of these signals below 800 nM); values are not corrected for it. The control count says in how many pairings with the empty strains this scFv gave a signal. Parent in this assay: reference entry 200 nM, copy in this library 180 nM.

Reference: Engelhart et al. 2022, doi:10.1038/s41597-022-01779-4. File: FLAb, binding data.